## AlphaSeq binding of Ab-14 heavy chain variants to a spike HR2 peptide

Values reported by Engelhart et al. 2022, doi:10.1038/s41597-022-01779-4 (FLAb copy).

Binding partner: SARS-CoV-2 spike HR2 peptide, sequence PDVDLGDISGINAS.

Parent: Ab-14, a human scFv built as VH, a (GGGGS)3 linker, VL. Only the CDRs of the heavy chain vary.
VH: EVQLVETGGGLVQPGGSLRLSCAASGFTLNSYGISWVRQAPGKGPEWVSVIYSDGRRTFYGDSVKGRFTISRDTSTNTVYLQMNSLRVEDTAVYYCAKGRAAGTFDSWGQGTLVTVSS
VL: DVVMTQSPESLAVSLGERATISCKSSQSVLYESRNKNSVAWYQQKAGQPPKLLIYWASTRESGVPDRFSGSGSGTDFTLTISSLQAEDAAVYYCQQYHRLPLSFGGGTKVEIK

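Phage display of a naive human antibody library on the peptide gave the parent. Library AAYL49 holds single substitutions and randomly drawn double and triple substitutions in the CDRs. AlphaSeq pools MATa yeast showing the antibodies with MATalpha yeast showing the peptide. Pairs that bind mate more often; barcode pairs of the diploids are counted by sequencing. Read counts were normalised to the haploid input and turned into Kd by a linear fit to BCL2-family pairs of known affinity, for each replicate. Each pool was mated in three replicate cultures.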

Each variant is given by its three heavy chain CDRs, as the data file delimits them; those of the parent are GFTLNSYGIS, VIYSDGRRTFYGDSVK, GRAAGTFDS.
Values are log10 of the apparent Kd in nM; lower means stronger binding.
Averages over replicates are reported, and they cover detected replicates only.
"nd" means that the variant was in the library but no mating with the target was seen in any replicate; the authors take this as a sign of poor binding, and no number exists.
Empty control strains, which show no peptide, gave a signal in 15% of pairings with library AAYL49; the median was 4.06 and 95% of these signals were weaker than 2.83. No background was subtracted.

Read-out 2.65 (3 of 3 replicates), from GFTLNSYGIS / VIYSDGRRTQYGDTVK / GRAAGTFDG.
Read-out 5.25 (1 of 3 replicates), from GFTHNSYGIF / VIYSDGRRNFYGDSVK / GRAAGTFDS.
Read-out nd (0 of 3 replicates), from GFTRNSYGQS / VIYSDGRRTFYIDSVK / GRAAGTFDS.
Read-out nd (0 of 3 replicates), from GFTLNSIGIS / VIYSDGRHTMYGDSVK / GRAAGTFDS.
Read-out nd (0 of 3 replicates), from GFTLNSYGIS / VIYSDGDRTFYGDSVK / QRAAGTFMS.
Read-out 4.35 (1 of 3 replicates), from GFTLNSYGIS / VIYCDGRVTFYGDSVK / GRAAGTFDS.
Read-out nd (0 of 3 replicates), from GFTLNSYGIS / VIYSNGRRTFYGDSVK / GHCAGTFDS.
Read-out nd (0 of 3 replicates), from GFTLNSYGIS / LIKSDGRRTFYGDSVK / TRAAGTFDS.
Read-out nd (0 of 3 replicates), from GFTLNSYGIS / VIYSDGRMWFYGDSVK / GRAAGTFDS.
Read-out nd (0 of 3 replicates), from GFTLNSDGIS / VIYSDGRRTFYTDSVK / GRAAGTHDS.
Read-out 4.97 (1 of 3 replicates), from GFTLNSYGIA / VIYSDGRRTFYGDSVK / GRAYGTCDS.
Read-out 2.97 (1 of 3 replicates), from GFTLNSYGIP / VIYSDGRRTAYGDSVK / GRAATTFDS.
Read-out nd (0 of 3 replicates), from GFTLNSYSIS / VIYSDGRRTFYGDSVK / GRAATTFDS.
Read-out 2.85 (1 of 3 replicates), from GFTDNSYGIS / VIYSDGRGTFFGDSVK / GRAAGTFDS.
Read-out 3.93 (1 of 3 replicates), from GFTLNPWGHS / VIYSDGRRTFYGDSVK / GRAAGTFDS.
Read-out 3.60 (1 of 3 replicates), from GFTLNSYGIS / VGYTDGRRCFYGDSVK / GRAAGTFDS.
Read-out nd (0 of 3 replicates), from PFTPNSYGIS / VIYSDGRRTFYVDSVK / GRAAGTFDS.
Read-out nd (0 of 3 replicates), from GFTLNSYGIS / VIYSDGTRTFYGDSVA / IRAAGTFDS.
Read-out 4.36 (1 of 3 replicates), from GFTYNSYGIS / VIYSTGRRTFYGDSVK / GRAAGTYDS.
Read-out 4.17 (1 of 3 replicates), from GFTLNSYWIS / VIASDGRRTFYGDSVK / GRAYGTFDS.
Read-out 4.37 (1 of 3 replicates), from GFTLNSYGIS / VIYQKGRRTFYGDSVL / GRAAGTFDS.
Read-out nd (0 of 3 replicates), from GFTLNSYGIS / VIYSDGNPTFYGDDVK / GRAAGTFDS.
Read-out nd (0 of 3 replicates), from GSTLNSYGIS / VITSDGRRTFYGDSVK / GRHAGTFDS.
Read-out nd (0 of 3 replicates), from GFTLNSYSIS / VIYSDGRSTFYGDSVK / GNAAGTFDS.
Read-out 3.19 (3 of 3 replicates), from GFSLNSYGIN / VIYSDGRRTFYGDSVK / GRAAGTFDS.
Read-out nd (0 of 3 replicates), from GFTLNSYGIS / VIYSVGRRTFYGDGVK / GRAAGTFDD.
Read-out 4.52 (2 of 3 replicates), from GFTLNSYGIS / VIYDDHRRTFYGDSVK / GRAAGTTDS.
Read-out 3.97 (1 of 3 replicates), from GFQLNSYGIS / VIYSDGRATFYGHSVK / GRAAGTFDS.
Read-out nd (0 of 3 replicates), from GFTFMSYGIS / VIYSLGRRTFYGDSVK / GRAAGTFDS.
Read-out nd (0 of 3 replicates), from GFTLGSYGIS / VIYSDGRRTFNGDSVK / GRAAGTFDS.
Read-out 0.81 (3 of 3 replicates), from GFQLNSYGIS / VIYSDGRRTGYGDSVK / GRAAGTFDS.
Read-out nd (0 of 3 replicates), from GFTLNSYGIS / EIYSEGRRTFYGDSVK / GQAAGTFDS.
Read-out 3.72 (1 of 3 replicates), from GFTLNSYGIS / VIYSDGRLTFYGDIVK / GRPAGTFDS.
Read-out 4.57 (1 of 3 replicates), from GTTLNSYGIS / IIYSDGRRTFYGDSVK / GRAAGTFDS.
Read-out nd (0 of 3 replicates), from GFTLNSYGIS / VDESDGRRCFYGDSVK / GRAAGTFDS.
Read-out 1.48 (3 of 3 replicates), from GFTLNSYGIS / VIYSDGRRTFYGDSFK / GRAAGCFDS.
Read-out nd (0 of 3 replicates), from GFTLNSYGIS / VIYSDGRRTFYGDSVK / TRQTGTFDS.
Read-out 4.13 (3 of 3 replicates), from GFTLNSKGIS / VIYSDGRRTFYGDSVP / GRAAGNFDS.
Read-out nd (0 of 3 replicates), from GFTLNSYGIS / VIYSDGSNTFYGDSVK / GRAAGTADS.
Read-out nd (0 of 3 replicates), from GFTLNSYGIS / VNYSDGRPTFYGDNVK / GRAAGTFDS.
Read-out 3.30 (3 of 3 replicates), from GMTLNSYGIS / VIYQDGRRTFYGDSVK / GRAAGTFDS.
Read-out 4.03 (3 of 3 replicates), from GFTLNSYGIS / VIYSSGRRVFYGDSVK / GRAATTFDS.
Read-out 3.48 (2 of 3 replicates), from GFTLNSYGVS / VTYSDGRRKFYGDSVK / GRAAGTFDS.
Read-out 2.99 (1 of 3 replicates), from GFTLNSYGIS / VIYSDGRCTWYGDSVK / GQAAGTFDS.
Read-out 0.02 (3 of 3 replicates), from GFDLNSYGIS / VIYSDGRRTFYGDSVK / GRAAKTFDD.
Read-out 3.87 (1 of 3 replicates), from GFTLNSYGIS / VIYSNGRRTFYGDSVK / PRAAGTFDS.
Read-out 1.59 (3 of 3 replicates), from GFLLNSYGIS / VIYSDGRRCFYGDSVK / GRAAGTFDS.
Read-out 3.42 (1 of 3 replicates), from GFTGNSYGIS / VILSDGRRTFYGDSVK / GRALGTFDS.
Read-out 4.61 (1 of 3 replicates), from QFTLNSYGIS / VIYSDGRRTFGGDSVK / GRAAGTFDS.
Read-out 4.43 (2 of 3 replicates), from GFTLNSYEIS / VIYSDGRYYFYGDSVK / GRAAGTFDS.
Read-out 3.53 (2 of 3 replicates), from GFTLNSYGIS / VIYSDGDRTFYGDRVK / CRAAGTFDS.
Read-out 4.46 (2 of 3 replicates), from GFTLNCYGIS / VIYSDGRRTFYGDSVK / QRAALTFDS.